# Test results taken from article PMC11254172 (International Journal for Parasitology: Drugs and Drug …, 2024).
# Test system: T. gondii ME49 tachyzoites
# Type: cell-based, Toxoplasma gondii
smiles,measurement,value
CC(C)(CO)Cn1nc(-c2ccc3cc(OC4CC4)ccc3c2)c(C(N)=O)c1N [BKI-1708],Ultrastructural alteration of intracellular tachyzoites (TEM),induced the formation of multinucleated schizont-like complexes (MNCs); also recorded: induced the formation of intracellular multinucleated complexes (MNCs)

# Entries after “also recorded” stand apart in the source; their conditions may differ.
